Experiment [1] has as its target cAMP-dependent protein kinase catalytic subunit alpha [L49I,Q181K,T183A] (Bos taurus, UniProt P00517, L49I/Q181K/T183A). As to the kind of experiment: Kinase Activity Assay. As to the method: (§1) The enzyme activity was assayed by using an ATP regenerative NADH consuming system. The reaction was started with adding ATP to the mixture containing enzyme, substrate, and inhibitor. The decrease of NADH was time-dependent, and was measured at 340 nm with three independent measurements per data point. IC50 values were calculated using SigmaPlot 8.0 and Origin 5 software.

The target in experiment [2] is cAMP-dependent protein kinase catalytic subunit alpha [L49I,V123M,E127D,Q181K,T183A] (Bos taurus, UniProt P00517, E127D/L49I/Q181K/T183A/V123M). Kind of experiment: Kinase Activity Assay. As for the experimental part: as §1

In the case of `Cc1cncc2cccc(S(=O)(=O)N3CCCNC[C@@H]3C)c12` [H-1152], the concentration for half-maximal inhibition (IC50) in experiment [1] came out at 58 nM; in experiment [2], 149 nM.

These data come from BindingDB's records for doi:10.1074/jbc.M512374200 (German Cancer Research Center, 2006).
